Measurements reported in ChEMBL document CHEMBL1681717, “Design and synthesis of a novel, orally active, brain penetrant, tri-substituted thiophene based JNK inhibitor” (Bioorg Med Chem Lett, 2011).

Amino acid sequences for entries named in this document (tags omitted). A change or cut given only in a name is not applied to a line headed by its entry.
UniProt P53779: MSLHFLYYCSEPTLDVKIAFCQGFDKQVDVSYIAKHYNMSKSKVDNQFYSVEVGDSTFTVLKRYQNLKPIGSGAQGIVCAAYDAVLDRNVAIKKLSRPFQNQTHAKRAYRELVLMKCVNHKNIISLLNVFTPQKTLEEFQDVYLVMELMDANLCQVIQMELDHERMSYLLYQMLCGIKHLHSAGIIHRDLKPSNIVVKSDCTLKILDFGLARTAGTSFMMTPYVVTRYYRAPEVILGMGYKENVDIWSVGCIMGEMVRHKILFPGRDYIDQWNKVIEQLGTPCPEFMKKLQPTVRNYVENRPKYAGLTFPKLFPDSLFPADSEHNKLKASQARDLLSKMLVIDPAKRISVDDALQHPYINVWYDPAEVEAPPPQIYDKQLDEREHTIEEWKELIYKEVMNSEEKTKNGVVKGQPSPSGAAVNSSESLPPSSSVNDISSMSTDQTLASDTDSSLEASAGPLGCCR

Target: Mitogen-activated protein kinase 10 (Homo sapiens, UniProt P53779)
Experiment: Inhibition of recombinant JNK3 after 60 mins by TR-FRET assay

Q: `Cc1csc(NC(=O)CN2C(=O)CCc3ccccc32)c1-c1ncn[nH]1` was tested. Which IC50 did it give?
A: 25 nM
